From patent US10227344B2, “CK2 inhibitors, compositions and methods thereof” (Polaris Pharmaceuticals, Inc., priority 2016, dated 2019)

Key:
Format in all cases: cell-based
SKOV-3 = test: Cancer cell panel, cell viability (resazurin): Ovarian, SKOV-3; conditions: SKOV-3 (Ovarian), 72 hours; labelled drug combined with Example 3
Procedure: (§1) Cells were plated in 96-well plates and treated for 72 hours with a serially diluted CK2 inhibitor or anti-cancer drug or their combination. The suspension cell lines were treated right after plating, while the adherent cells were allowed to attach overnight prior to the start of the treatment.
(§2) Cell viability was determined by adding resazurin to cell cultures and measuring fluorescence with a plate reader. Relative cell viability was calculated by dividing the cell viability signal from a test sample by that of a non-treated control. Reduction in relative cell viability after treatment with a combination of the CK2 inhibitor and anti-cancer drug was compared to that observed after treatment with each agent by itself (CK2 inhibitor or the anti-cancer drug). Bliss Independence and Highest Single Agent models were used to determine if there is synergy, additivity or antagonism between the CK2 inhibitor and an anti-cancer drug.

A2780 = test: Cancer cell panel, cell viability (resazurin): Ovarian, A2780; conditions: 72 hours, labelled drug combined with Example 3
Procedure: as §1, §2

BxPC3 = test: Cancer cell panel, cell viability (resazurin): Pancreatic, BxPC3; conditions: 72 hours, labelled drug combined with Example 3
Procedure: as §1, §2

EOL-1 = test: Cancer cell panel, cell viability (resazurin): Leukemia, EOL-1; conditions: EOL-1 (Leukemia), 72 hours; labelled drug combined with Example 3
Procedure: as §1, §2

MDA-MB-231 = test: Cancer cell panel, cell viability (resazurin): Breast, MDA-MB-231; conditions: MDA-MB-231 (Breast), 72 hours; labelled drug combined with Example 3
Procedure: as §1, §2

Caki-1 = test: Cancer cell panel, cell viability (resazurin): Renal, Caki-1; conditions: Caki-1 (Renal), 72 hours; labelled drug combined with Example 3
Procedure: as §1, §2

Caov-3 = test: Cancer cell panel, cell viability (resazurin): Ovarian, Caov-3; conditions: Caov-3 (Ovarian), 72 hours; labelled drug combined with Example 3
Procedure: as §1, §2

H1299 = test: Cancer cell panel, cell viability (resazurin): NSCLC, H1299; conditions: 72 hours, labelled drug combined with Example 3
Procedure: as §1, §2

DLD-1 = test: Cancer cell panel, cell viability (resazurin): Colon, DLD-1; conditions: DLD-1 (Colon), 72 hours; labelled drug combined with Example 3
Procedure: as §1, §2

Nc1nc(F)nc2c1ncn2[C@@H]1O[C@H](CO)[C@@H](O)[C@@H]1O [Fludarabine, fludarabine]
synergy, additivity or antagonism of the combination of Example 3 with the anti-cancer drug (SKOV-3): + + (Slight synergy relative to each agent alone (CI = 0.75-0.9 by Bliss Independence Model)) | synergy, additivity or antagonism of the combination of Example 3 with the anti-cancer drug (A2780): + + (Slight synergy relative to each agent alone (CI = 0.75-0.9 by Bliss Independence Model)) | synergy, additivity or antagonism of the combination of Example 3 with the anti-cancer drug (BxPC3): + (Additive relative to each agent alone (CI = 0.9-1 by Bliss Independence Model and <0.9 by Highest Single Agent Model)) | synergy, additivity or antagonism of the combination of Example 3 with the anti-cancer drug (EOL-1): + (Additive relative to each agent alone (CI = 0.9-1 by Bliss Independence Model and <0.9 by Highest Single Agent Model)) | synergy, additivity or antagonism of the combination of Example 3 with the anti-cancer drug (MDA-MB-231): + + (Slight synergy relative to each agent alone (CI = 0.75-0.9 by Bliss Independence Model)) | synergy, additivity or antagonism of the combination of Example 3 with the anti-cancer drug (Caki-1): + (Additive relative to each agent alone (CI = 0.9-1 by Bliss Independence Model and <0.9 by Highest Single Agent Model)) | synergy, additivity or antagonism of the combination of Example 3 with the anti-cancer drug (Caov-3): + (Additive relative to each agent alone (CI = 0.9-1 by Bliss Independence Model and <0.9 by Highest Single Agent Model)) | synergy, additivity or antagonism of the combination of Example 3 with the anti-cancer drug (H1299): + (Additive relative to each agent alone (CI = 0.9-1 by Bliss Independence Model and <0.9 by Highest Single Agent Model)) | synergy, additivity or antagonism of the combination of Example 3 with the anti-cancer drug (DLD-1): + (Additive relative to each agent alone (CI = 0.9-1 by Bliss Independence Model and <0.9 by Highest Single Agent Model))
